The list is not random: actives were taken first. Their share in the collection is about 1.8%.
E-selectin induc: E-selectin induction in HUVECs, primary screen, imaging, HUVEC, immunofluorescence imaging, single point. P16581. normalized: neutral wells 0, TNF-alpha wells 100. activation, % at 7.58 µM. hit rate 0.37% among 260,000. AID 686992, 2013;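 active means mean E-selectin-positive cell signal at least 10% of the positive control, reached in at least 60% of replicates, without over 20% cell loss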
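Assay system: HUVEC primary endothelial cells. Input: 3,000 HUVEC seeded per well. Doses: one compound dose added by pin transfer. Read-out basis: % PE-positive cells. Benchmarks: TNF-alpha high, DMSO low. Detection: immunofluorescence imaging. Buffer or medium: EGM-2, gelatin.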
RAD54 inh: inhibitors of human RAD54 branch migration, primary screen, biochemical, fluorescence, single point; DNA repair and recombination protein RAD54-like (Homo sapiens), Q92698; RAD54 Holliday junction branch migration, FAM/BHQ fluorescence; inhibition, % at 10.4 µM; hit rate 0.14% among 360,000; AID 602329, 2012;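 active means mean normalized replicate activity at least 40 and at least half of replicates scoring 40 or more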;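 further: inhibitors cause a drop in the FAM fluorescence signal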
Yeast UUG start: alters start codon recognition fidelity in yeast; S. cerevisiae UUG-firefly luciferase reporter, luminescence/redox ratio; activity score, % at 18.7 µM; hit rate 0.13% among 350,000;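 active = replicate mean at a twofold rise or more, about +100% in these data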;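 also: firefly luciferase made from a UUG start codon reports start codon fidelity; reporter light over untreated wells divided by growth signal over untreated wells; some hits fall short of that in this replicate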
RAD52 inh: RAD52 DNA annealing inhibitors, primary screen, biochemical, FRET, single point, set 2; inhibition, % at 18.7 µM; DNA repair protein RAD52 homolog (Homo sapiens), P43351; hit rate 0.46% among 360,000; recombinant RAD52 DNA annealing, FRET fluorescence;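 active means every replicate showing at least 50% inhibition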
SIRT5 block: SIRT5 desuccinylase inhibitors, primary screen, biochemical, fluorescence imaging, single point, set 5 | inhibition, % at 15 µM | Purified SirT5, succinyl-peptide AMC, trypsin-coupled fluorescence | hit rate 1.1% among 330,000 | AID 652115, 2013 | NAD-dependent protein deacylase sirtuin-5, mitochondrial (Homo sapiens), Q9NXA8; in the data active means inhibition above about 15%
MLL AF4-AF9 inh: inhibitors of AF4 peptide binding to AF9, primary screen, biochemical, AlphaScreen, biotin-AF4 peptide, FLAG-AF9, single point | inhibition, % at 10 µM | Protein AF-9 (Homo sapiens), P42568 | hit rate 0.47% among 350,000;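 active means every replicate reaching a set inhibition limit, whatever the replicate mean, cut at about 25% in these data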
A number is an active result; – = inactive; · = no result given.

Protein sequences, listed by entry. Tags and fused reporters are not part of them.
DNA repair protein RAD52 homolog (Homo sapiens), P43351, UniProt P43351, whole entry, looked up: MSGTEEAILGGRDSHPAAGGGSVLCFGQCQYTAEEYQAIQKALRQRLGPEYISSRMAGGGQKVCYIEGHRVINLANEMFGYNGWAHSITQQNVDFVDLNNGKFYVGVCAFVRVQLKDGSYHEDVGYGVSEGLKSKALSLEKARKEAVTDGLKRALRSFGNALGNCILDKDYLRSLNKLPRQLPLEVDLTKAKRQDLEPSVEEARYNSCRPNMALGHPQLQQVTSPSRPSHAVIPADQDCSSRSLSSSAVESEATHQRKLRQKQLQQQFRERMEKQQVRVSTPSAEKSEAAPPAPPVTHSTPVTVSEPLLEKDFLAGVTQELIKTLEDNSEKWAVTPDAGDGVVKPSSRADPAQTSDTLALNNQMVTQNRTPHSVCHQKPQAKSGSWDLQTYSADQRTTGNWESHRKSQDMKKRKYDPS
Protein AF-9 (Homo sapiens), P42568, UniProt P42568, whole entry, looked up: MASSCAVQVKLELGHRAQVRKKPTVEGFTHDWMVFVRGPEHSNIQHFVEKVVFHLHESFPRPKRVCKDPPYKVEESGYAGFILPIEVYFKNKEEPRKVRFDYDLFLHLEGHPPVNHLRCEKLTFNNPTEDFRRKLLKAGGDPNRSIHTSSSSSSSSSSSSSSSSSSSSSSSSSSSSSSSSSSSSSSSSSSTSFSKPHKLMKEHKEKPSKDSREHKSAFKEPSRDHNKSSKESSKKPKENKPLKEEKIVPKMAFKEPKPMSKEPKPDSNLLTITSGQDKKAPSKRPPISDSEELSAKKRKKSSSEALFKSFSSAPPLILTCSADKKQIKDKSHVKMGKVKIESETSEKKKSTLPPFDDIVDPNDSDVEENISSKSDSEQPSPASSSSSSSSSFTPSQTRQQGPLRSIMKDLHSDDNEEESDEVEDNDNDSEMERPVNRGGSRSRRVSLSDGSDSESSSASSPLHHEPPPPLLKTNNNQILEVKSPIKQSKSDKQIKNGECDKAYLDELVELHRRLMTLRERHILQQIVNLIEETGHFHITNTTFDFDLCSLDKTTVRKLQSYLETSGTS

SMILES	E-selectin induc	RAD54 inh	Yeast UUG start	RAD52 inh	SIRT5 block	MLL AF4-AF9 inh
C[C@@H]1CN([C@@H](C)CO)C(=O)c2cc(NS(=O)(=O)c3ccc(F)cc3)ccc2O[C@@H](C)CCCCO[C@@H]1CN(C)Cc1ccc(C(F)(F)F)cc1	–	–	–	–	–	–
C[C@@H]1CCCCO[C@@H](CN(C)Cc2ccc(C(F)(F)F)cc2)[C@H](C)CN([C@H](C)CO)C(=O)c2cc(NS(=O)(=O)c3ccccc3)ccc2O1	–	–	–	–	18	–
COc1ccc(CNC(=O)C[C@H]2C=C[C@@H](NC(=O)CN(C)C)[C@H](CO)O2)cc1	–	–	–	–	–	–
O=C(C1CCCC1)N1CC[C@@H]2[C@@H](CO)Nc3ccc(C#Cc4ccc(F)cc4)cc3[C@@H]21	–	·	·	–	–	–
O=C(C1CCC1)N1CC[C@@H]2[C@H](CO)Nc3ccc(C#Cc4ccc(F)cc4)cc3[C@@H]21	34	·	·	–	–	–
CCC(=O)N1CC[C@H]2[C@H](CO)Nc3ccc(C#Cc4ccc(OC)cc4)cc3[C@H]21	–	·	·	–	–	26
CCC(=O)N1CC[C@@H]2[C@H](CO)Nc3ccc(C#Cc4ccc(F)cc4)cc3[C@@H]21	59	–	–	–	·	–
CCC(=O)N1CC[C@@H]2[C@H]1c1cc(C#Cc3ccc(F)cc3)ccc1N[C@@H]2CO	–	–	–	–	–	–
COc1ccc(C#Cc2ccc3c(c2)[C@H]2[C@H](CCN2Cc2ccncc2)[C@@H](CO)N3)cc1	–	·	·	63	–	–
COc1ccc(C#Cc2ccc3c(c2)[C@H]2[C@H](CCN2C(=O)C2CC2)[C@@H](CO)N3)cc1	–	–	–	–	–	–
COc1ccccc1-c1ccc2c(c1)[C@H]1[C@H](CCN1S(=O)(=O)c1cccc(C)c1)[C@H](CO)N2	–	·	·	–	–	–
CO[C@H]1CN(C)C(=O)c2cc(NC(=O)C3CC3)ccc2OC[C@H](C)N(CC2CCOCC2)C[C@H]1C	–	–	–	–	–	–
N#C[C@@H]1[C@H](c2ccccc2-c2ccccc2F)[C@@H](CO)N1C(=O)C1CCC1	–	·	·	–	–	–
O=C(CN1CCOCC1)N[C@@H]1CC[C@H](CCNC(=O)C2CCC2)O[C@H]1CO	–	–	·	–	–	–
COCC(=O)N1CC[C@H]2[C@H](CO)Nc3ccc(C#Cc4ccc(OC)cc4)cc3[C@H]21	–	·	·	–	15	–
COCC(=O)N1CC[C@@H]2[C@H](CO)Nc3ccc(C#Cc4ccc(OC)cc4)cc3[C@@H]21	–	–	–	–	–	–
O=C(CN1CCOCC1)N1CC[C@@H]2[C@H]1c1cc(-c3ccc(F)cc3)ccc1N[C@@H]2CO	–	–	–	–	–	·
COc1ccc(C#Cc2ccc3c(c2)[C@@H]2[C@@H](CCN2C(=O)C2CCC2)[C@@H](CO)N3)cc1	–	·	·	–	–	–
O=C(CN1CCOCC1)N1CC[C@H]2[C@H](CO)Nc3ccc(-c4ccc(F)cc4)cc3[C@H]21	–	–	–	–	34	–
COc1ccc(C#Cc2ccc3c(c2)[C@@H]2[C@@H](CCN2C(=O)C2CCC2)[C@H](CO)N3)cc1	–	·	·	–	17	–
C[C@@H]1CN([C@@H](C)CO)S(=O)(=O)c2ccc(C#CC3CC3)cc2O[C@H]1CN(C)C(=O)c1ccncc1	–	–	–	–	–	–
c1ccc2c(c1)nc(N1CCCCCC1)c1nncn12	–	–	–	–	·	–
O=C1CN(c2nc3ccccc3n3cnnc23)CC(=O)N1CCc1ccccc1	–	–	–	–	–	25
Nc1nnc(SCC(=O)Nc2nnc(-c3ccccc3)o2)s1	–	–	–	–	–	–
Nc1nnc(SCc2nnc(-c3ccccc3)o2)s1	523	·	·	–	–	–
SMILES	E-selectin induc	RAD54 inh	Yeast UUG start	RAD52 inh	SIRT5 block	MLL AF4-AF9 inh
C[C@H](CO)N1C[C@H](C)[C@@H](CN(C)C(=O)c2ccncc2)Oc2ncc(-c3ccc(F)cc3)cc2C1=O	–	·	·	·	·	·
CCOC(=O)C1(C)CCN1C(=O)c1cccc(Cl)c1 (stereo not given)	–	–	–	–	32	–
CCCNC(=O)C1(C)CCN(C(=O)c2cccc(C#N)c2)C1 (stereo not given)	–	–	–	–	–	28
CCOC(=O)C1(C)CCCN(C(=O)c2cccc(C#N)c2)C1 (stereo not given)	–	–	–	–	15	–
CCCNC(=O)C1(C)CCN(C(=O)c2cccc(Cl)c2)C1 (stereo not given)	·	–	–	–	–	–
CCCNC(=O)N1[C@H](CNC(=O)CC)[C@H](c2ccc(C3=CCCC3)cc2)[C@@H]1CO	–	–	–	–	–	–
C[C@@H]1CN([C@H](C)CO)C(=O)c2cccc(NC(=O)c3ccncc3)c2O[C@H]1CN(C)Cc1ccccc1	–	–	–	–	–	–
CN1C(=O)c2cc(NC(=O)C3CCCCC3)ccc2OC[C@H]2O[C@H](CC(=O)NCCc3ccncc3)CC[C@@H]21	–	–	–	–	–	–
O=C1CN(C(=O)c2ccccc2F)C(c2ccccc2)c2cc(F)ccc2N1 (stereo not given)	·	–	–	–	–	–
Cc1ccc(C(=O)N2CC(=O)Nc3ccc(F)cc3C2c2ccccc2)cc1 (stereo not given)	–	–	–	–	15	–
Cc1noc(C)c1NC(=O)N(C)C[C@@H]1Oc2ccc(NS(=O)(=O)c3ccc(F)cc3)cc2CC(=O)N([C@@H](C)CO)C[C@@H]1C	–	–	–	–	–	–
C[C@@H]1CN([C@@H](C)CO)C(=O)c2ccccc2-c2ccccc2CO[C@@H]1CN(C)Cc1ccc2c(c1)OCCN2C	–	–	·	–	–	37
COc1cccc(CN(C)C[C@@H]2OCc3ccccc3-c3c(n(C)c4ccccc34)C(=O)N([C@H](C)CO)C[C@H]2C)c1	–	·	·	–	29	–
C[C@H]1CN([C@@H](C)CO)C(=O)c2c(c3ccccc3n2C)-c2ccccc2CO[C@H]1CN(C)Cc1ccc(F)cc1	–	·	·	–	–	–
C[C@H](CO)N1C[C@H](C)[C@@H](CN(C)Cc2ccc3c(c2)OCCN3C)OCc2ccccc2-c2c(n(C)c3ccccc23)C1=O	–	·	·	–	–	31
C[C@@H]1CN([C@H](C)CO)C(=O)c2c(c3ccccc3n2C)-c2ccccc2CO[C@@H]1CN(C)Cc1ccc2c(c1)OCO2	–	·	·	–	–	–
C[C@H](CO)N1C[C@H](C)[C@H](CN(C)Cc2ccc3c(c2)OCO3)OCc2ccccc2-c2ccccc2C1=O	–	–	·	–	–	–

Source: PubChem
